{
  "source": "patent US10413557B2",
  "about": "“Prodrugs of 17.BETA.-HSD1-inhibitors” (FORENDO PHARMA LTD, priority 2014, dated 2019)",
  "assay": "Aqueous solubility test",
  "type": "physicochemical",
  "protocol": "The pH of the mixtures was held constant during the study. Excess amounts or a known amount of each component are added to 1 or 0.5 ml of buffer solution and the mixtures were stirred at rt for 48 hours or less, filtered (0.45 μm Millipore) and analyzed by HPLC.",
  "data": [
    {"substance": "Phosphoric acid mono-{(13S,15R)-17-[(E)-methoxyimino]-13-methyl-15-[2-(5-methylthiazol-2-ylcarbamoyl)ethyl-7,8,9,11,12,13,14,15,16,17-decahydro-6H-cyclopenta[a]phenanthren-3-yl} ester disodium salt [Compound 1a]", "values": [
      {"measurement": "aqueous solubility, in words", "setting": "comment on Table 5, compared with parent VIV-1", "result": "improved aqueous solubility"},
      {"measurement": "Aqueous solubility, buffer at pH 7.4", "setting": "rt, buffer pH 7.4, stirred 48 hours or less, HPLC", "result": "over 35 mg/ml"}
    ]}
  ]
}
